# Ab-14 light chain CDR variants: yeast mating affinities

The measurements come from Engelhart et al. 2022 (doi:10.1038/s41597-022-01779-4) through the FLAb antibody collection.

Target: peptide PDVDLGDISGINAS, taken from heptad repeat 2 (HR2) of SARS-CoV-2 spike.

Ab-14 is the parent antibody, in scFv form: VH, then a (GGGGS)3 linker, then VL. The heavy chain is unchanged in all variants.
VH: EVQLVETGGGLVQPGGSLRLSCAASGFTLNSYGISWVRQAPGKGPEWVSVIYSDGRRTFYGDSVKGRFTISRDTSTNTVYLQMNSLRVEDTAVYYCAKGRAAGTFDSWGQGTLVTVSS
VL: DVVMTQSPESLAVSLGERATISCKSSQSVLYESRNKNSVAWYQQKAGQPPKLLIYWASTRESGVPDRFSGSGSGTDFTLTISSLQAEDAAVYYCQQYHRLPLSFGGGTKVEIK

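The parent was found by panning a naive human phage display library on the peptide. In library AAYL50, one, two or three CDR residues were substituted; doubles and triples were drawn at random. Affinity was read by AlphaSeq, a pooled yeast mating assay with surface-displayed partners. Binding brings cells together so that they mate, and sequencing counts the barcode pairs among the diploids. Scores were corrected for input abundance and mapped to Kd with protein pairs of known affinity run in the same pool. The assay was run in three technical replicates.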

Each variant is given by its three light chain CDRs, as the data file delimits them; those of the parent are KSSQSVLYESRNKNSVA, WASTRES, QQYHRLPLS.
All variants listed here change S58 of the VL, counted from its first residue.
The read-out is the apparent dissociation constant on a log10 scale (nM): the lower, the stronger.
Replicates are averaged; those with no signal do not enter the mean.
Where no diploid with the target was found in any replicate, the entry reads "no signal": below detection, most likely a poor binder, though not proof of it.
Order: sorted from the lowest average up, undetected variants last.
For reference, the parent read 0.65 as the reference entry and 1.68 as a member of this library.

For KSSQSVLYESRNKNSVA / EATTNES / QQYHRLPLS, the assay gave 0.58 (3 of 3 replicates; controls 0 of 9). The variant KSSQSVLYGSRNLNSVA / WADTRES / QQYHRLPLS gave 0.60 (3 of 3 replicates; controls 0 of 9). For KSSQSVLYESRNKNSVA / WATTRES / QQYKRLPLN, the assay gave 1.24 (3 of 3 replicates; controls 4 of 9). For KSSQSVYYESRNKNSVA / WATTRES / QQYHRLPLQ, the assay gave 1.31 (3 of 3 replicates; controls 1 of 9). For KCSQSVLYESRNCNSVA / WAATRES / QQYHRLPLS, the assay gave 1.41 (3 of 3 replicates; controls 0 of 9). The variant KSSQSVLYEARNKNSVA / WAQTRES / QQYHRLPLS showed 1.51 (3 of 3 replicates; controls 1 of 9).

The variant KSSQSVLYESRNKNSVA / WAMTRES / QQYHRLPLS showed 1.59 (3 of 3 replicates; controls 1 of 9). For KSSQSVLYESRNKNSVA / WAPNRES / QQYHNLPLS, the assay gave 1.81 (2 of 3 replicates; controls 0 of 9). With KSSQSVLYESRNKNSVA / WACTRES / QNYHRLPLK the result was 2.46 (3 of 3 replicates; controls 1 of 9). With KYGQSVLYESRNKNSVA / WAATRES / QQYHRLPLS the result was 3.03 (1 of 3 replicates; controls 0 of 9). For KSCQSVLYESRNKNSVA / WADTRES / QQYHRLPKS, the assay gave 3.04 (1 of 3 replicates; controls 0 of 9). The variant KSSQSVLYASRNKNSVA / WACTRES / QQYHRLVLS showed 3.05 (3 of 3 replicates; controls 2 of 9).

With KSSSSNLYESRNKNSVA / WALTRES / QQYHRLPLS the result was 3.08 (1 of 3 replicates; controls 2 of 9). For KSSQAVLYPSRNKNSVA / WAFTRES / QQYHRLPLS, the assay gave 3.23 (3 of 3 replicates; controls 4 of 9). The variant KSSQSVLYESRNKWSVK / WAWTRES / QQYHRLPLS gave 3.32 (1 of 3 replicates; controls 2 of 9). The variant KSSQSVLYESRVNNSVA / WAMTRES / QQYHRLPLS gave 3.40 (2 of 3 replicates; controls 3 of 9). The variant KSSQSNLYMSRNKNSVA / WAMTRES / QQYHRLPLS gave 3.43 (3 of 3 replicates; controls 2 of 9). For KSRQSVLYESRNKNSVA / WADTRES / QQYHRCPLS, the assay gave 3.46 (1 of 3 replicates; controls 1 of 9).

With KSSQMVLYESRNKNSVA / WAMTRES / QQYHRLTLS the result was 3.80 (2 of 3 replicates; controls 4 of 9). The variant KSSQSVLYESRNDNSVW / WAETRES / QQYHRLPLS gave 3.82 (1 of 3 replicates; controls 1 of 9). With KSSQSVLYESRNKNSVA / WAHTRES / QQYHRLPLS the result was 3.87 (3 of 3 replicates; controls 1 of 9). With KSSISVLYESRLKNSVA / WAFTRES / QQYHRLPLS the result was 4.10 (2 of 3 replicates; controls 1 of 9). The variant KSSQSVLYESRNKNSVA / WAPARES / QQYHRIPLS gave 4.14 (2 of 3 replicates; controls 1 of 9). The variant KSSQSVLYESMNKNSVA / WACTRES / QQYHRLPYS gave 4.24 (1 of 3 replicates; controls 2 of 9).

The variant KSSQSVLYSSRNKNFVA / WAETRES / QQYHRLPLS gave 4.25 (1 of 3 replicates; controls 1 of 9). For KSSQSVLYESRNKNSVA / WAKTRES / MQYGRLPLS, the assay gave 4.58 (1 of 3 replicates; controls 7 of 9). With KSSQSVLYESRDKNSVA / WAETRES / QQYHRLPWS the result was 4.60 (2 of 3 replicates; controls 5 of 9). The variant KSSQWVLYESRNKNSVN / WAFTRES / QQYHRLPLS gave 4.70 (1 of 3 replicates; controls 0 of 9). The variant KSSQSVLYESRNKNSVA / WQWTRES / QQYHRLPLS showed 6.08 (1 of 3 replicates; controls 1 of 9). For KSAQSVLYESRNKNSVA / RAYTRES / QQYHRLPLS, the assay gave no signal (0 of 3 replicates; controls 0 of 9).

The variant KSSQSVLYESRNKNSVA / WANTRES / QQQHRLPHS showed no signal (0 of 3 replicates; controls 0 of 9). For KSSQSVLYEHRNKNSEA / WACTRES / QQYHRLPLS, the assay gave no signal (0 of 3 replicates; controls 0 of 9). The variant KSSQSVLYESRNKNSVK / WAETRES / QQYHMLPLS showed no signal (0 of 3 replicates; controls 0 of 9). The variant KSSQSVLYESRNSNSVA / WAYTRES / QQYHRGPLS showed no signal (0 of 3 replicates; controls 0 of 9). For KSSQSVWYESRNKNSVA / WAATRES / EQYHRLPLS, the assay gave no signal (0 of 3 replicates; controls 0 of 9). For KSSQSVLYETRNKNSVA / WAATREC / QQYHRLPLS, the assay gave no signal (0 of 3 replicates; controls 1 of 9).

For KHSQSVLYESRNKNYVA / WACTRES / QQYHRLPLS, the assay gave no signal (0 of 3 replicates; controls 0 of 9). The variant KSSQSVLYESRNKMSVA / IALTRES / QQYHRLPLS gave no signal (0 of 3 replicates; controls 0 of 9). The variant KSSQSVLYESRNKNSVA / WAMTHES / QQYERLPLS gave no signal (0 of 3 replicates; controls 1 of 9). With KSSQSVLYESRNKNSVA / WAAFRES / QQYHRLTLS the result was no signal (0 of 3 replicates; controls 0 of 9). With KSSQSVLYESRNKNSVA / WAWTRES / QQYHRLRDS the result was no signal (0 of 3 replicates; controls 0 of 9). With KSSQSVLYESRCKNSVA / WAKTRES / QQYHDLPLS the result was no signal (0 of 3 replicates; controls 1 of 9).

From the list, the first 6 with no signal in any replicate:

Variant KSAQSVLYESRNKNSVA / RAYTRES / QQYHRLPLS gave no signal (0 of 3 replicates; controls 0 of 9).
Variant KSSQSVLYESRNKNSVA / WANTRES / QQQHRLPHS gave no signal (0 of 3 replicates; controls 0 of 9).
Variant KSSQSVLYEHRNKNSEA / WACTRES / QQYHRLPLS gave no signal (0 of 3 replicates; controls 0 of 9).
Variant KSSQSVLYESRNKNSVK / WAETRES / QQYHMLPLS gave no signal (0 of 3 replicates; controls 0 of 9).
Variant KSSQSVLYESRNSNSVA / WAYTRES / QQYHRGPLS gave no signal (0 of 3 replicates; controls 0 of 9).
Variant KSSQSVWYESRNKNSVA / WAATRES / EQYHRLPLS gave no signal (0 of 3 replicates; controls 0 of 9).

As a blank, each scFv also met three strains without target: over library AAYL50, 18% of these pairings were detected, typically at 4.19 and seldom below 2.99. The control count says in how many pairings with the empty strains this scFv gave a signal.